Measurements published in patent publication US7718767B2, “3-ether and 3-thioether substituted cyclosporin derivatives for the treatment and prevention of hepatitis C infection” (Scynexis, Inc., priority 2006, dated 2010).

Columns and labels:
[1] = test system: CEM-SS cells; experiment: Compound cytotoxicity in the HIV MTS assay (cells plus drug only); assay type: cell-based, human; settings: 50% inhibition of cell growth
Procedure: In this MTS cytoprotection assay, each experiment included cell control wells (cells only), virus control wells (cells plus virus), drug toxicity wells (cells plus drug only), drug colorimetric control wells (drug only) as well as experimental wells (drug plus cells plus virus). […] HIV-1RF was added to each well in a volume of 50 μL, the amount of virus determined to give approximately 90% cell killing at 6 days post-infection. At assay termination, assay plates were stained with the soluble tetrazolium-based dye MTS (CellTiter 96 Reagent, Promega) to determine cell viability and quantify compound toxicity. MTS is metabolized by the mitochondria enzymes of metabolically active cells to yield a soluble formazan product, providing a quantitative analysis of cell viability and compound cytotoxicity. The assay was validated in parallel experiments using Zidovudine (3′-azido-3′-deoxythymidine or AZT) as a positive control.

[2] = test system: human hepatoma cell line ET; experiment: Cytotoxicity in the replicon cell line, colorimetric assay of cell numbers; settings: ET cells, 72 h; for IC50: read-out: Cytotoxicity IC50, concentration inhibiting cell viability by 50%; for IC90: read-out: Cytotoxicity IC90, concentration inhibiting cell viability by 90%

Substance	IC50 [1] [µM]	IC50 [2] [nM]	IC90 [2] [nM]
3-(ethoxy)-4-(gamma-hydroxymethylleucine)cyclosporin [W]	> 20	> 2000	> 2000
3-(isopropoxy)-4-(gamma-hydroxymethylleucine)cyclosporin [V]	> 20	> 2000	> 2000
